ChEMBL document CHEMBL5376018 (RSC Med Chem, 2024)
Calls of active or inactive are those of the source. The rule behind the calls is not given here.

Test system: rhinovirus B14
Test: Antiviral activity against Human rhinovirus 14 infected in HeLa H1 cells at 1 MOI assessed as inhibition of cell cycle by measuring viral titre at 0.5 uM upto 6 hrs by MTT assay
Format: functional, organism-based

## CCOC(=O)/C=C/[C@H](C[C@@H]1CCNC1=O)NC(=O)[C@@H](CC(=O)[C@@H](NC(=O)c1cc(C)on1)C(C)C)Cc1ccc(F)cc1
  Activity: Active
